Screens deposited in PubChem BioAssay by Broad Institute.
Sampled rows, rich in hits. Any-hit rate of the full collection: about 1.5%.
Env fusion inh: inhibitors of HIV Env-mediated cell fusion; HeLa-JRFL Env/CEM21 cell fusion, luciferase; inhibition, % at 12.3 µM; 360,000 tested, 1.1% active; AID 651610;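 active = mean replicate inhibition score of at least 50 and every replicate individually at or above 50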;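 note: 0% = plate neutral controls and 100% = maraviroc near 300 nM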
miR-122 sensor: blocks miR-122 activity in Huh7 sensor cells; Huh7 miR-122 Renilla luciferase sensor, 48 h; neutral wells = 0, positive control = 100; activation (reporter increase), % at 12.5 µM; 340,000 tested, 0.3% active; AID 602342;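 active = mean replicate activation score at least 90 and every replicate individually at or above 90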;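 note: higher luciferase means less miR-122 activity so hits act as miR-122 inhibitors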
PGC1a acetyl inh: modulators of PGC1a acetylation; U2OS PGC1a acetylation, AlphaScreen anti-acetyl-lysine; with virally co-expressed GCN5 acetyltransferase; 350,000 tested, 0.17% active; inhibition, % at 15.6 µM; AID 651687;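 active = every replicate shows inhibition of at least 40%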;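 note: 0% = neutral control wells and 100% = positive control wells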
FN deposit inh: fibronectin deposition inhibition; 350,000 tested, 0.086% active; AH1F fibroblasts, Alexa488-fibronectin deposition fluorescence, overnight; inhibition, % at 12.6 µM;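 active = mean inhibition across replicates of 30% or more, regardless of how many single replicates reach that level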;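 note: positive control wells lacked labelled fibronectin entirely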
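Assay system: AH1F fibroblasts assembling fluorescent fibronectin matrix; Amount: 10000 AH1F cells per well; Buffer or medium: DMEM, 2% serum; Probe or stimulus: Alexa488-fibronectin, 24 nM final in well; Doses: single compound dose, delivered by pin transfer; Incubation: 1 h adhesion, overnight exposure; Measured by: fluorescence 485/525 nm; Read-out: fibronectin deposition inhibition.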
Yeast UUG start: modulators of start codon recognition fidelity in yeast; AID 602363; activity score, % at 18.7 µM; S. cerevisiae UUG-firefly luciferase reporter, luminescence/redox ratio; actives 0.13% (n = 350,000);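 active = replicate mean at a twofold rise or more, about +100% in these data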;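 note: firefly luciferase made from a UUG start codon reports start codon fidelity; reporter light over untreated wells divided by growth signal over untreated wells; some hits fall short of that in this replicate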
Cneo AK release: causes C. neoformans cell lysis; adenylate kinase release luminescence, 4 h; normalised: neutral wells 0, clomiphene wells 100; lysis activity, % at 15 µM; 360,000 tested, 0.2% active;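 active = mean lysis activity across replicates of at least 80%, whatever share of replicates individually reach that level; inactive = mean lysis activity below 80%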
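Test system: log-phase Cryptococcus neoformans yeast cells. Input: 5 × 10^6 yeast cells/mL. Medium: fresh YPD growth medium. Doses: single dose. Incubation: static 4 h at 37 °C with compound, 1 h detection. Measured by: luminescent adenylate kinase detection reagent. Read-out: signal increase indicating cell lysis. Benchmarks: Clomiphene.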
* hit, by the source's call.

CC(C)C[C@H](NC(=O)c1[nH]cnc1C(=O)N[C@@H](Cc1ccccc1)C(=O)OC(C)(C)C)C(=O)OCc1ccccc1 was read as Env fusion inh 58.5*, miR-122 sensor 4.4, PGC1a acetyl inh 14.9, FN deposit inh -6.3, Yeast UUG start -15.5 and Cneo AK release 1.3.
CC(C)C[C@H](NC(=O)c1[nH]cnc1C(=O)N[C@@H](Cc1ccccc1)C(=O)OCc1ccccc1)C(=O)OC(C)(C)C was read as Env fusion inh 44.4, miR-122 sensor 2.0, PGC1a acetyl inh 3.2, FN deposit inh -2.7, Yeast UUG start -6.0 and Cneo AK release -0.1.
`O=C(CSc1nnnn1-c1cccc(C(=O)O)c1)NC(c1ccccc1)c1ccccc1` gave Env fusion inh -17.7, miR-122 sensor 0.6, PGC1a acetyl inh -5.6 and FN deposit inh -3.3.
`COC1=C(C)C(=O)C2=C(C1=O)C1C3CC4=C(C(=O)C(OC)=C(C)C4=O)C(CNC(=O)C(C)=O)N3C(C#N)C(C2)N1C` (stereo not given) gave Env fusion inh 64.0*, miR-122 sensor -14.0, PGC1a acetyl inh 42.1 and FN deposit inh -4.3.
CC1CN(S(=O)(=O)c2ccc(C(=O)Nc3nnc(-c4ccco4)o3)cc2)CC(C)O1 (stereo not given) was read as Env fusion inh -2.0 and FN deposit inh 4.6.
Screening COc1cccc(-c2nnc(NC(=O)c3ccc(S(=O)(=O)N4CC(C)OC(C)C4)cc3)o2)c1 (stereo not given) returned Env fusion inh 55.2*, miR-122 sensor -9.3, PGC1a acetyl inh -4.9, FN deposit inh -2.9, Yeast UUG start -17.4 and Cneo AK release 3.1.
For COCC(C)n1c(SCc2nc(N)nc(Nc3ccccc3C)n2)nc2ccccc2c1=O (stereo not given) the results were Env fusion inh -48.4, miR-122 sensor -5.7, PGC1a acetyl inh 11.2, FN deposit inh 32.5*, Yeast UUG start -8.1 and Cneo AK release 4.4.
Screening COCC(C)n1c(SCC(=O)NC(=O)Cc2ccccc2)nc2ccccc2c1=O (stereo not given) returned Env fusion inh 19.2, miR-122 sensor 143.9*, PGC1a acetyl inh 7.0, FN deposit inh 4.5, Yeast UUG start -16.2 and Cneo AK release 0.1.
Screening CCCCn1c(SCc2nc(N)nc(Nc3ccccc3C)n2)nc2ccccc2c1=O returned miR-122 sensor -4.8 and PGC1a acetyl inh -5.6.
`COCC(C)n1c(SCC(=O)NNC(=O)c2ccccc2)nc2ccccc2c1=O` (stereo not given) gave Env fusion inh 2.2, miR-122 sensor -3.0, FN deposit inh -1.9, Yeast UUG start -12.5 and Cneo AK release 0.0.
Screening CC(=O)c1ccc(N2CCN(C(=O)c3cc4c(-c5ccccc5F)nn(C)c4s3)CC2)cc1 returned Env fusion inh 65.6*, miR-122 sensor -5.4, FN deposit inh -0.2, Yeast UUG start -17.9 and Cneo AK release 1.5.
For CC(OC(=O)c1ccc(S(=O)(=O)N(C)c2ccccc2)cc1)C(=O)NCCC1=CCCCC1 (stereo not given) the results were Env fusion inh -12.2, miR-122 sensor -9.1, FN deposit inh 10.0, Yeast UUG start 0.7 and Cneo AK release 0.2.
For CC(OC(=O)c1ccc(NC(=O)CC#N)cc1)C(=O)NCCC1=CCCCC1 (stereo not given) the results were Env fusion inh 75.6*, miR-122 sensor 1.2, PGC1a acetyl inh 10.0, FN deposit inh 1.0, Yeast UUG start -11.3 and Cneo AK release -0.7.
Screening COc1ccc(NC(=O)CNCCC2=CCCCC2)cc1 returned Env fusion inh 60.0*, miR-122 sensor -3.9, PGC1a acetyl inh -23.2, FN deposit inh 2.6, Yeast UUG start -6.7 and Cneo AK release 0.1.
`COc1ccc(NC(=O)[C@H](Cc2c[nH]c3ccccc23)NC(=O)[C@@H]2Cc3ccccc3CN2)cc1` gave miR-122 sensor 1.4, PGC1a acetyl inh 63.5*, Yeast UUG start -5.0 and Cneo AK release -0.6.

Sorted by formula weight (high to low): part of the list above.
CC(C)C[C@H](NC(=O)c1[nH]cnc1C(=O)N[C@@H](Cc1ccccc1)C(=O)OCc1ccccc1)C(=O)OC(C)(C)C was read as Env fusion inh 44.4, miR-122 sensor 2.0, PGC1a acetyl inh 3.2, FN deposit inh -2.7, Yeast UUG start -6.0 and Cneo AK release -0.1.
Screening CC(=O)c1ccc(N2CCN(C(=O)c3cc4c(-c5ccccc5F)nn(C)c4s3)CC2)cc1 returned Env fusion inh 65.6*, miR-122 sensor -5.4, FN deposit inh -0.2, Yeast UUG start -17.9 and Cneo AK release 1.5.
CC1CN(S(=O)(=O)c2ccc(C(=O)Nc3nnc(-c4ccco4)o3)cc2)CC(C)O1 (stereo not given) was read as Env fusion inh -2.0 and FN deposit inh 4.6.
